Data taken from PubChem BioAssay AID652048 (National Center for Advancing Translational Sciences (NCATS), 2013).
Only a part is listed here, and it is no random draw. Some structures show a salt or complex split into parts, the way the source records it. Calls of active or inactive are those of the source. Cut-off read from the data, not from the text of the source: active = max activation above about 30%; inactive = the rest.

Chains of the proteins cited; added tags and fusions are not shown.
UniProt P35462, whole entry: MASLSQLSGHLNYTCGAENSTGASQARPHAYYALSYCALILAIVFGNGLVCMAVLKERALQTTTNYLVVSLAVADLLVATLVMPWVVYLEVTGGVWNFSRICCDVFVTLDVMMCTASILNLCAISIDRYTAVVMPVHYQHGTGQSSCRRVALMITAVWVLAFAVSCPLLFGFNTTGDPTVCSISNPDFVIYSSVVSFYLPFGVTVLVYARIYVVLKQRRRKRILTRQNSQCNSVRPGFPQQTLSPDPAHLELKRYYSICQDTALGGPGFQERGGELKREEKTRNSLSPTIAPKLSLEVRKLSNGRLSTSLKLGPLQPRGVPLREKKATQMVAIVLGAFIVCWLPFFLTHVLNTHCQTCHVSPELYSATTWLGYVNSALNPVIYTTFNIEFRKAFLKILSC

The compounds below were run against D(3) dopamine receptor (Homo sapiens) (UniProt P35462) (assay: qHTS of D3 Dopamine Receptor Agonist: qHTS). Settings: D3R DiscoveRx beta-arrestin cells, luminescence, 90 min; stronger effect = higher value.
From the text: D3 DARs represent a very important target for the treatment of several neuropsychiatric disorders. Indeed, one of the most promising therapeutic applications for the D3 DAR is in the area of addiction and related disorders. […] These findings have been observed with a number of addictive substances including cocaine, amphetamine, nicotine, and alcohol. […] Antagonism of the D3 DAR may also be therapeutic in the treatment of schizophrenia or psychosis. […] Since the D3 DAR is expressed in areas of the CNS associated with the control of mood and emotion, it has been hypothesized that selective antagonism of the D3 DAR may be effective in treating psychosis without inducing the motor side effects typically seen with D2 DAR antagonists.
This part of the project aims to discover novel agonist.
NIH Chemical Genomics Center [NCGC]
NIH Molecular Libraries Probe Centers Network [MLPCN]
Assay Submitter (PI): David Sibley, NINDS
Freshly passaged cells are plated in 1536 well white, solid bottom plates at a density of 1500 cells/well in 3microl of complete media. After an overnight incubation at 37 degrees C in 5% CO2, cells are loaded with 23nl of test compound from the compound library (as well as dopamine controls) using a 1536 pintool and incubated at 37 degrees C for 90 minutes. Two microliters of DiscoveRx reagent is then added to all cells, and they are incubated for an additional 30 - 60 minutes at room temperature. Following incubation, luminescence is measured on a ViewLux CCD-based luminometer reader using a 20 sec exposure time.
Note: 0% is about no effect.

| Compound | max activation |
| --- | --- |
| Cc1cc(C)cc(N(C(=O)c2ccccc2)C2CCN(C(=O)OC(C)(C)C)CC2)c1 | inactive: 1.15% |
| O=C(NCC1(N2CCCCC2)CCCCC1)c1ccc(Cl)nc1 | inactive: -15% |
| O=c1[nH]c2ccccc2n1C1CCN(C(c2ccccc2OC(F)(F)F)c2nnnn2C2CCCCC2)CC1 (configuration not stated) | inactive: 2.98% |
| O=C(NCC1(N2CCOCC2)CCCCC1)c1cc2ccccc2o1 | inactive: 1.44% |
| COc1ccc(Cl)cc1C(=O)NCC1(N2CCOCC2)CCCCC1 | inactive: -7.36% |
| O=C1C(O)=C([N+](=O)[O-])C(=O)C(O)=C1[N+](=O)[O-] | inactive: -16.2% |
| O=C(NCC1(N2CCCCC2)CCCCC1)c1ccc(Cl)s1 | inactive: -16.2% |
| N#CC1(Nc2ccccc2)CCN(Cc2ccccc2)CC1 | inactive: -2.18% |
| O=C(OC1CN2CCC1CC2)C1c2ccccc2Oc2ccccc21 (configuration not stated) | inactive: 1.44% |
| O=c1[nH]c2ccccc2n1C1CCN(C(c2cc3ccccc3o2)c2nnnn2C2CCCCC2)CC1 (configuration not stated) | inactive: 6.44% |
| CCCCn1nnnc1C(c1ccc(OC)cc1)N1CCC(n2c(=O)[nH]c3ccccc32)CC1 (configuration not stated) | inactive: -16.8% |
| CCOC(=O)N1CCC(Nc2ccc(OC)cc2)CC1 | inactive: 0.04% |
| CC(C)(C)OC(=O)N1CCC(N(C(=O)c2ccccc2)c2ccc(F)cc2)CC1 | inactive: 2.67% |
| COc1ccc(C(=O)NCC2(N3CCCCC3)CCCCC2)c(OC)c1OC | inactive: -2.49% |
| CCC(c1nnnn1C1CCCC1)N1CCC(n2c(=O)[nH]c3ccccc32)CC1 (configuration not stated) | inactive: -6.57% |
| COc1ccc(C(=O)NCC2(N3CCCCC3)CCCCC2)cc1 | inactive: -14.2% |
| O=C(NCC1(N2CCCCC2)CCCCC1)c1cccs1 | inactive: -12.1% |
| CCCCn1nnnc1C(CC)N1CCC(n2c(=O)[nH]c3ccccc32)CC1 (configuration not stated) | inactive: 2.29% |
| CCCCn1nnnc1C(c1cccs1)N1CCC(n2c(=O)[nH]c3ccccc32)CC1 (configuration not stated) | inactive: -6.82% |
| O=C(NCC1(N2CCCCC2)CCCCC1)c1ccc(=O)[nH]c1 | inactive: -1.85% |
| Cc1cccc(NC2(C#N)CCN(Cc3ccccc3)CC2)c1 | inactive: -10.5% |
| CSc1ccccc1C(=O)NCC1(N2CCCCC2)CCCCC1 | inactive: 2.87% |
| O=c1[nH]c2ccccc2n1C1CCN(C(c2ccccc2)c2nnnn2C2CCCCC2)CC1 (configuration not stated) | inactive: 2.49% |

| Compound | max activation |
| --- | --- |
| CCOC(=O)N1CCC(Nc2cccc(C)c2)CC1 | inactive: 6.26% |
| COc1cc(C(=O)NCC2(N(C)C)CCCCC2)ccc1OC(F)F | inactive: -12.2% |
| O=c1[nH]c2ccccc2n1C1CCN(C(c2cccc3ccccc23)c2nnnn2C2CCCC2)CC1 (configuration not stated) | inactive: -8.34% |
| O=C1CCN(Cc2ccccc2)CC1 | inactive: -32.4% |
| O=C(NCC1(N2CCOCC2)CCCCC1)c1ccc(Cl)cc1 | inactive: -18.8% |
| CC(C)(C)n1nnnc1C(c1ccccc1)N1CCC(n2c(=O)[nH]c3ccccc32)CC1 (configuration not stated) | inactive: -7.1% |
| CCOc1ccc(C)cc1CN(CCCl)CCCl | inactive: 0.447% |
| COc1ccccc1C(=O)NCC1(N2CCOCC2)CCCCC1 | inactive: -4.63% |
| COc1ccc(NC2CCN(CCc3ccccc3)CC2)c(OC)c1 | inactive: -53.3% |
| CCOC(=O)N1CCC(Nc2ccc(F)cc2)CC1 | inactive: 7.43% |
| CCCCn1nnnc1C(c1cc2ccccc2o1)N1CCC(n2c(=O)[nH]c3ccccc32)CC1 (configuration not stated) | inactive: 3.44% |
| O=P1(N(CCCl)CCCl)SCCCS1 | inactive: 8.78% |
| CCCCOc1ccc(C(=O)NCC2(N3CCOCC3)CCCCC2)cc1 | inactive: -3.06% |
| O=C(NCC1(N2CCCCC2)CCCCC1)c1ccc(F)cc1 | inactive: -11.3% |
| O=[N+]([O-])c1cc([N+](=O)[O-])c(NCC2CCS(=O)(=O)C2)c([N+](=O)[O-])c1 (configuration not stated) | inactive: -11.6% |
| CCCOc1cccc(C(=O)NCC2(N3CCOCC3)CCCCC2)c1 | inactive: 3.04% |
| O=C(NCC1(N2CCCCC2)CCCCC1)c1cccc(C(F)(F)F)c1 | inactive: -17.2% |
| COc1cc(C(=O)NCC2(N3CCCCC3)CCCCC2)ccc1OC(F)F | inactive: -18.4% |
| O=C(NCC1(N2CCOCC2)CCCCC1)c1cc(=O)[nH]c2ccccc12 | inactive: 0.598% |
| CN1CCN(CCOC(=O)C(O)(c2ccccc2)c2ccccc2)CC1 | inactive: -8.51% |
| CC(C)c1ccc(C(=O)NCC2(N3CCOCC3)CCCCC2)cc1 | inactive: -17.9% |
| COc1ccc(NC2CCN(C(=O)OC(C)(C)C)CC2)cc1 | inactive: 4.29% |
| CCCCn1nnnc1C(c1cccc2ccccc12)N1CCC(n2c(=O)[nH]c3ccccc32)CC1 (configuration not stated) | inactive: -9.2% |

| Compound | max activation |
| --- | --- |
| O=C(NCC1(N2CCCCC2)CCCCC1)c1ccc(OC(F)F)cc1 | inactive: -3.07% |
| CC(C)(C)n1nnnc1C(c1ccccc1OC(F)(F)F)N1CCC(n2c(=O)[nH]c3ccccc32)CC1 (configuration not stated) | inactive: 7.41% |
| O=c1[nH]c2ccccc2n1C1CCN(C(c2ccccc2OC(F)(F)F)c2nnnn2C2CCCC2)CC1 (configuration not stated) | inactive: 9.78% |
| N#CC1(Nc2ccccc2)CCN(CCc2ccccc2)CC1 | inactive: 2.33% |
| CCN1CCC(Nc2ccc(Cl)cc2)CC1 | inactive: 0.0073% |
| O=C(NCC1(N2CCCCC2)CCCCC1)c1cccc([N+](=O)[O-])c1 | inactive: -16% |
| CCOc1ccc(C(=O)NCC2(N3CCOCC3)CCCCC2)cc1 | inactive: -1.79% |
| CSc1ccc(C(=O)NCC2(N3CCOCC3)CCCCC2)cc1 | inactive: -16.1% |
| O=C(OC1CN2CCC1CC2)c1ccc([N+](=O)[O-])cc1 (configuration not stated) | inactive: 7.89% |
| CN1CCC(Nc2cccc(F)c2)CC1 | inactive: -9.52% |
| COc1ccc2c(c1O)-c1c(O)c(OC)cc3c1[C@H](C2)[N+](C)(C)CC3.O=[N+]([O-])c1cc([N+](=O)[O-])c([O-])c([N+](=O)[O-])c1[O-] | inactive: -7.66% |
| O=C(NCC1(N2CCCCC2)CCCCC1)c1cncc(Br)c1 | inactive: -25.5% |
| O=[N+]([O-])c1cc([N+](=O)[O-])c(Nc2ccc(Cl)cc2)c([N+](=O)[O-])c1 | inactive: -6.41% |
| COc1ccc(C(c2nnnn2C2CCCC2)N2CCC(n3c(=O)[nH]c4ccccc43)CC2)cc1 (configuration not stated) | inactive: -5.54% |
| O=C(NCC1(N2CCOCC2)CCCCC1)c1ccccc1Br | inactive: 1.31% |
| CCCOc1ccc(C(=O)NCC2(N(C)C)CCCCC2)cc1OC | inactive: -11.3% |
| CCCCOc1ccccc1C(=O)NCC1(N2CCOCC2)CCCCC1 | inactive: 12.3% |
| Cc1ccc(C(=O)NCC2(N(C)C)CCCCC2)o1 | inactive: 3.19% |
| CCCCn1nnnc1C(c1ccccc1OC(F)(F)F)N1CCC(n2c(=O)[nH]c3ccccc32)CC1 (configuration not stated) | inactive: 3.43% |
| CC(C)c1ccc(NC2CCN(C(=O)OC(C)(C)C)CC2)cc1 | inactive: 2.72% |
| O=[N+]([O-])c1cc([N+](=O)[O-])c(OC2CCCCC2O)c([N+](=O)[O-])c1 (configuration not stated) | inactive: 0.459% |
| CN(C)c1cccc(C(=O)NCC2(N3CCCCC3)CCCCC2)c1 | inactive: -19% |
| COc1ccc(CN(CCCl)CCCl)cc1Cl | inactive: 7.77% |

| Compound | max activation |
| --- | --- |
| O=C(NCC1(N2CCOCC2)CCCCC1)c1cc(F)c(F)cc1Cl | inactive: 1.61% |
| CCC(c1nnnn1C(C)(C)C)N1CCC(n2c(=O)[nH]c3ccccc32)CC1 (configuration not stated) | inactive: -9.57% |
| COc1cc(OC)c(C(=O)NCC2(N(C)C)CCCCC2)cc1OC | inactive: -2.85% |
| CCCCn1nnnc1C(c1ccnc2ccccc12)N1CCC(n2c(=O)[nH]c3ccccc32)CC1 (configuration not stated) | inactive: 1.23% |
| CCOC(=O)N1CCC(Nc2ccc(C)cc2)CC1 | inactive: 2.79% |
| COc1cccc(C(c2nnnn2C(C)(C)C)N2CCC(n3c(=O)[nH]c4ccccc43)CC2)c1OC (configuration not stated) | inactive: -15.1% |
| N/C(=N\O)c1c(N)no[n+]1[O-] | inactive: 0.734% |
| O=c1[nH]c2ccccc2n1C1CCN(C(c2cccs2)c2nnnn2C2CCCC2)CC1 (configuration not stated) | inactive: 9.52% |
| O=C(O)c1cccc(Nc2c([N+](=O)[O-])cc([N+](=O)[O-])cc2[N+](=O)[O-])c1 | inactive: -24% |
| CCc1cc(C(=O)NCC2(N3CCCCC3)CCCCC2)sc1C | inactive: -20.3% |
| O=C(OC1CN2CCC1CC2)C1c2ccccc2C=Cc2ccccc21 (configuration not stated) | inactive: 2.44% |
| CCCCn1nnnc1C(c1cccc(OC)c1OC)N1CCC(n2c(=O)[nH]c3ccccc32)CC1 (configuration not stated) | inactive: 5.97% |
| COc1cc(C(=O)NCC2(N3CCOCC3)CCCCC2)cc(OC)c1C | inactive: -5.27% |
| CCCCn1nnnc1C(c1ccccc1)N1CCC(n2c(=O)[nH]c3ccccc32)CC1 (configuration not stated) | inactive: -7.56% |
| O=C(NCC1(N2CCOCC2)CCCCC1)c1cc(Br)ccc1Cl | inactive: -3.13% |
| O=c1[nH]c2ccccc2n1C1CCN(C(c2cccs2)c2nnnn2C2CCCCC2)CC1 (configuration not stated) | inactive: -5.19% |
| O=c1[nH]c2ccccc2n1C1CCN(C(c2ccnc3ccccc23)c2nnnn2C2CCCC2)CC1 (configuration not stated) | inactive: 9.79% |
| COc1ccc(C(=O)NCC2(N3CCOCC3)CCCCC2)cc1OC | inactive: -1.7% |
| CN(C)C1(CNC(=O)c2cccc(C#N)c2)CCCCC1 | inactive: -26.1% |
| O=C(NCC1(N2CCOCC2)CCCCC1)c1ccccc1 | inactive: -4.79% |
| Cc1cc(N(CCCl)CCCl)ccc1C=O | inactive: 7.46% |
| CCCN1CCC(Nc2cc(OC)cc(OC)c2)CC1 | inactive: -9.59% |
| O=c1[nH]c2ccccc2n1C1CCN(C(c2ccccc2)c2nnnn2C2CCCC2)CC1 (configuration not stated) | inactive: -12.3% |
